# Experimental data as given in IntAct's records for PubMed 35512704.
# B1: RAC-alpha serine/threonine-protein kinase (Homo sapiens), P31749 (parent)
# chain: MSDVAIVKEGWLHKRGEYIKTWRPRYFLLKNDGTFIGYKERPQDVDQREAPLNNFSVAQCQLMKTERPRPNTFIIRCLQWTTVIERTFHVETPEEREEWTTAIQTVADGLKKQEEEEMDFRSGSPSDNSGAEEMEVSLAKPKHRVTMNEFEYLKLLGKGTFGKVILVKEKATGRYYAMKILKKEVIVAKDEVAHTLTENRVLQNSRHPFLTALKYSFQTHDRLCFVMEYANGGELFFHLSRERVFSEDRARFYGAEIVSALDYLHSEKNVVYRDLKLENLMLDKDGHIKITDFGLCKEGIKDGATMKTFCGTPEYLAPEVLEDNDYGRAVDWWGLGVVMYEMMCGRLPFYNQDHEKLFELILMEEIRFPRTLGPEAKSLLSGLLKKDPKQRLGGGSEDAKEIMQHRFFAGIVWQHVYEKKLSPPFKPQVTSETDTRYFDEEFTAQMITITPPDQDDSMECVDSERRPHFPQFSYSASGTA
# partner: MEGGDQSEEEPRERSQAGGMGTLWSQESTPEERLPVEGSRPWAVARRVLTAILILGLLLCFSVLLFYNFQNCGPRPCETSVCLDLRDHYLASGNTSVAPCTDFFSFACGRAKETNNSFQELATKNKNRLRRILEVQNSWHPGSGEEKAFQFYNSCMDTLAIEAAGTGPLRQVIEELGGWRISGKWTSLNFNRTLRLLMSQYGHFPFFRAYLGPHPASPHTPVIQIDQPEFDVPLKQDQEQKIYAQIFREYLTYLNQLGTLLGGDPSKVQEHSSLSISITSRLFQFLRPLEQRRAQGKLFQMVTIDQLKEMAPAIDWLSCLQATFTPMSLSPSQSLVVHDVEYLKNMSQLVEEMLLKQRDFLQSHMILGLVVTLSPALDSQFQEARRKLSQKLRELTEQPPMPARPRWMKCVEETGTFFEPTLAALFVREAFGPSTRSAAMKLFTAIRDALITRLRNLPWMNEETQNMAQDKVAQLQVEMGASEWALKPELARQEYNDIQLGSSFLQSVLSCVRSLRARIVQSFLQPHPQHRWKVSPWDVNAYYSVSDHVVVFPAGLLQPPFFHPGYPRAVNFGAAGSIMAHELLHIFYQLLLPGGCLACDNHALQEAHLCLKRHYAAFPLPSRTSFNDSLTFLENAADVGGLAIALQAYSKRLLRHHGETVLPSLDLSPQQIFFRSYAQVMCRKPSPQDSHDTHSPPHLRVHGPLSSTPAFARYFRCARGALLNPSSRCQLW
# B2: RAC-alpha serine/threonine-protein kinase (Homo sapiens), P31749 (parent)
# chain: B1 chain
# partner: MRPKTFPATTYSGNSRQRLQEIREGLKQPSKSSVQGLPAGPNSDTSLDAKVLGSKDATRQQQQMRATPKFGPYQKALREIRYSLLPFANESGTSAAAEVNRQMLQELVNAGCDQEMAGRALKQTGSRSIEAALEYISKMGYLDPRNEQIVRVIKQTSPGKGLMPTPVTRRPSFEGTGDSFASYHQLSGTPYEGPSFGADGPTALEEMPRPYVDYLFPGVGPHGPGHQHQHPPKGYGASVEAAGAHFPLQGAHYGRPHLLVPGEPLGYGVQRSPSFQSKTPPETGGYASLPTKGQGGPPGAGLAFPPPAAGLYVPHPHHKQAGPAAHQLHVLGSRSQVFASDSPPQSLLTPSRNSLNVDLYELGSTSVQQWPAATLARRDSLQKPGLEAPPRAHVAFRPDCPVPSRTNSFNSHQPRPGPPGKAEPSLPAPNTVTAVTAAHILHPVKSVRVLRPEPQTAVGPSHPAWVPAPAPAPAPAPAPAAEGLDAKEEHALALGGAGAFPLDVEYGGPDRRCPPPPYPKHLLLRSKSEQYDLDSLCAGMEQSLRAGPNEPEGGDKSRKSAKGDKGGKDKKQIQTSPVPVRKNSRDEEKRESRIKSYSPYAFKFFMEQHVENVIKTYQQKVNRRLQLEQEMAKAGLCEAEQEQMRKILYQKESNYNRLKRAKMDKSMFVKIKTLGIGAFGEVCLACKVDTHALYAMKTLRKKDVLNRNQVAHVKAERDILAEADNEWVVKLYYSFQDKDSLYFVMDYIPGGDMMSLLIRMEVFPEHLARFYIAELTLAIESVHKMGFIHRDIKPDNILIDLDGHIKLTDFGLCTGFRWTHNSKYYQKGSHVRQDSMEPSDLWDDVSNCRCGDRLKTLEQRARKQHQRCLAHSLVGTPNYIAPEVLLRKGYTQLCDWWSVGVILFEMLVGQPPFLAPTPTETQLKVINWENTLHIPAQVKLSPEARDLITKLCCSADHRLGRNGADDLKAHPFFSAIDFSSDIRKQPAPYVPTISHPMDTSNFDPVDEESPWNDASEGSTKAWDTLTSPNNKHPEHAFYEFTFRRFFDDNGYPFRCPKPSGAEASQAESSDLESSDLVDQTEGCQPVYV
# B3: RAC-alpha serine/threonine-protein kinase (Homo sapiens), P31749 (parent)
# chain: B1 chain
# partner: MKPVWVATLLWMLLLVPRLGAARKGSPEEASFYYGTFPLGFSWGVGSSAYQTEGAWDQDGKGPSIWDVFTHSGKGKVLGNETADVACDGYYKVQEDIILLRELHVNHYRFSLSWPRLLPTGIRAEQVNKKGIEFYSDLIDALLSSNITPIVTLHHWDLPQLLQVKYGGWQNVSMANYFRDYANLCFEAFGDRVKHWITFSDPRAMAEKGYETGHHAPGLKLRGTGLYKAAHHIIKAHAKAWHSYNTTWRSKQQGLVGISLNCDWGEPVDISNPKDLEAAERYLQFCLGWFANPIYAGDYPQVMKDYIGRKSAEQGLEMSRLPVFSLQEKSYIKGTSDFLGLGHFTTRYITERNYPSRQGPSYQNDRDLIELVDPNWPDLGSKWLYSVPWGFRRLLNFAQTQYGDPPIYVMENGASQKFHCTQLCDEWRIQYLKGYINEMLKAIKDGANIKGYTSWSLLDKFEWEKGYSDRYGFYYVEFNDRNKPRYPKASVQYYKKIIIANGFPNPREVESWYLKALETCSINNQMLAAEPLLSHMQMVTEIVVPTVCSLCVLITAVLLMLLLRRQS
# B4: RAC-alpha serine/threonine-protein kinase (Homo sapiens), P31749 (parent)
# chain: B1 chain
# partner: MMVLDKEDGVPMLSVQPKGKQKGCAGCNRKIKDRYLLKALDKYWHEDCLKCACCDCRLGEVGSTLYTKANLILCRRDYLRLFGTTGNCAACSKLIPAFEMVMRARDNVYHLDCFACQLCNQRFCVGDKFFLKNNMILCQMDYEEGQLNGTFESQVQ
# B5: RAC-alpha serine/threonine-protein kinase (Homo sapiens), P31749 (parent)
# chain: B1 chain
# partner: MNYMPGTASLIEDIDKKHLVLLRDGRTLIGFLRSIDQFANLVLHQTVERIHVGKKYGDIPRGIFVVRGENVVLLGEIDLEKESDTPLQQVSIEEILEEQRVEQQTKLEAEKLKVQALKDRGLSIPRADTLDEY
# Variants of: B1
# Conditions: with kell_human KEL
row,Variant,effect of a mutation on the interaction
1,E17K,with no effect

# Variants of: B2
# Conditions: with lats2_human LATS2, Q9NRM7
row,Variant,effect of a mutation on the interaction
1,E17K,with no effect

# Variants of: B3
# Conditions: with lctl_human LCTL
row,Variant,effect of a mutation on the interaction
1,E17K,with no effect

# Variants of: B4
# Conditions: with rbtn1_human LMO1, P25800
row,Variant,effect of a mutation on the interaction
1,E17K,with no effect

# Variants of: B5
# Conditions: with lsm1_human LSM1, O15116
row,Variant,effect of a mutation on the interaction
1,E17K,with no effect
